Measurements published in patent US10138261B2, “Ferrocenyl compounds” (The University of Birmingham, priority 2013, dated 2018).

Legend:
Hela cells = experiment: minimum cytotoxic concentration in antiviral assay host cells (Table 2)
[1] = tested on: murine leukemia cells (L1210); experiment: proliferation activity assay, L1210 cells; details: L1210, Hela and CEM cell lines

| Substance | Minimum cytotoxic concentration (required to cause a microscopically detectable alteration of normal cell morphology) (Hela cells) | cytotoxicity in these cell lines (in words) [1] |
| --- | --- | --- |
| (S,Rp)-1-[α-Methyl-(3-(hydroxy)propyl)]-2-[(thyminyl)ethyl]-ferrocene [Compound 1] | 244 μM |  |
| 1-(Thyminyl-)ethyl-ferrocene [Compound 4] |  | poor cytotoxicity |
